The experiment addresses T1, MAO-A (Homo sapiens, UniProt P21397).
T1 construct: purchased
Briefly: MAO-Glo luminescent assay, MAO-A inhibition. The format is biochemical. The conditions noted are these: compared among isomyosmine, myosmine, anatabine, anabasine, nornicotine; clorgyline positive control. The text has this: This example describes experiments for determining monoamine oxidase (MAO) inhibition for isomyosmine and other alkaloids. MAOs are enzymes located on the outer membrane of mitochondria and are involved in the catabolism of monoamine neurotransmitters. There are two well-characterized isoenzymes: MAO-A, which predominantly catabolizes serotonin and norepinephrine, and MAO-B, which preferentially catabolizes benzylamine and phenylethylamine. Dopamine and tyramine are metabolized by both isoforms.
To detect the activity of MAO, a luminescent method (MAO-Glo Assay kit, from Promega, Cat #V1401) was used. In this method, a MAO substrate (a derivative of beetle luciferin provided in the kit) is mixed with the compound to be tested (in this case, myosmine and control compounds). Then, the MAO enzymes (either A or B, purchased separately) are added to the mixture and incubated with the reaction for 1 hour at room temperature. The MAO enzymes, if not inhibited by the test compound, will convert the substrate into methyl ester luciferin. Finally, a luciferin detection reagent (provided by the kit) is added (20 minutes at room temperature) to stop the MAO reaction and convert methyl ester luciferin into D-luciferin. […] The luminescent signal is measured and recorded using a luminometer. […]

The chains behind the UniProt entries cited, without tags or fusion partners.
UniProt P21397, whole entry, species assumed: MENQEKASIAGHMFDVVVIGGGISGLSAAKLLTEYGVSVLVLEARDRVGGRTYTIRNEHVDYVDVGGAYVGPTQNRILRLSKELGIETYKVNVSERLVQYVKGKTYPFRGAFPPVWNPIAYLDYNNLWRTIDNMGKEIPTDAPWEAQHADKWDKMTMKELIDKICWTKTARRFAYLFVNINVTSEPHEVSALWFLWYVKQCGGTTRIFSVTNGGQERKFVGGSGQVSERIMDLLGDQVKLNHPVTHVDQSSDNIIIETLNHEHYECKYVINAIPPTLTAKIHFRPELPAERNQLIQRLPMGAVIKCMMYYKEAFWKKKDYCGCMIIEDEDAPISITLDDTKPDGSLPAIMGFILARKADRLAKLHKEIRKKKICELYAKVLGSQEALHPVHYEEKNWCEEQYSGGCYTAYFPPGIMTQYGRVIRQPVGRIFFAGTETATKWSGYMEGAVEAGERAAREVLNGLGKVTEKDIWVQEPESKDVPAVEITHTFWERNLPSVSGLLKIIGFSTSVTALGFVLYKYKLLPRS

Turning to `C#CCN(C)CCCOc1ccc(Cl)cc1Cl` [clorgyline, reference compound], the “inhibiting the enzymatic activity of MAO-A (result in words, FIG. 3)” value is “greatly shifted leftward”.

(Values after US11179382B2, “Methods of reversing normal aging process and extending lifespan” (MyMD Pharmaceuticals (Florida), Inc., priority 2015, dated 2021).)
